For this assay, the target named is human GLP-1 receptor (human) (UniProt P43220). As to the kind of experiment: cell-based or functional assay.

As to “Exendin-4 (from UniProt P26349) (peptide)”, the EC50, cAMP, H GLP-1 R assay was determined as 560 pM; the cAMP release, % activity, 1 nM turned out to be 88%; the cAMP release, % activity, 10 nM stood at 95%; the cAMP release, % activity, 100 nM was found to be 99%. This substance registered a cAMP release, % activity, 1 µM of 99% and a cAMP release, % activity, 10 µM of 99%.

These data come from patent publication US20120021972A1 (CADILA HEALTHCARE, published 2012).
